Data taken from patent US5010095A, “N-(W-substituted alkyl)-'-(imidazol-4-yl)alkyl)guanidine” (Cedona Pharmaceuticals B.V., priority 1986, dated 1991).

By UniProt entry, the sequences of proteins in these tests, tags left out.
UniProt P31389, whole entry: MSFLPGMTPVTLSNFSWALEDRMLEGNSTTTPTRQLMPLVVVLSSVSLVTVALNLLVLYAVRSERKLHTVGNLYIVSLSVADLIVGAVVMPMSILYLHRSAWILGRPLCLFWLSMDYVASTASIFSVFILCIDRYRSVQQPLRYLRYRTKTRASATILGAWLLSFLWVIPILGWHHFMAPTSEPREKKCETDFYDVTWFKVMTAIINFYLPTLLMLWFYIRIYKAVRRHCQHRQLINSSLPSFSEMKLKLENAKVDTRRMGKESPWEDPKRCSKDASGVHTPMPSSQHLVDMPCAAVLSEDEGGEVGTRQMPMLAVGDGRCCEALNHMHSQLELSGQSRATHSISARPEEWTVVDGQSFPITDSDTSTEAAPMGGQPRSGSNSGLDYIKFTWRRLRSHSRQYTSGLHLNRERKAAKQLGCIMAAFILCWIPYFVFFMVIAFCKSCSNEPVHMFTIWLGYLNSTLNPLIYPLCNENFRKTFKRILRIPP

Target: T1, histamine H1 (guinea-pig trachea) (Cavia porcellus, UniProt P31389)
T1 construct: Single segments were cut from the trachea; from tissue; host or cells: guinea-pig trachea (isolated segments)
Assay: Histamine H1-activity, guinea-pig trachea
Settings: up to 10^-4 M
Procedure: The values for the H1 -activity given are the mean of at least two experiments in quadruplicate, while the values for the H2 -activity result from at least two experiments in duplicate.
Male guinea-pigs (350-500 g) were killed by a blow on the head and the trachea removed. Single segments were cut from the trachea, loaded with 0.4 g and placed in an organ bath (35° C.) containing 120 mM NaCl, 6 mM KCl, 1 mM MgSO4, 2.5 mM CaCl2, 1 mM NaH2 PO4, […] and 6 mM glucose. The organ bath was gassed with oxygen containing 5% CO2. PD2, intrinsic acitivity and antagonistic activity of the test compounds were determined from isotonically recorded, cumulative dose-response curves.

CN/C(=N/CCSCc1nc[nH]c1C)NC#N [cimetidine, reference compound]
effect on resting state and histamine induced contractions of the trachea: neither effect on the resting state of the organ nor on the histamine induced contractions
